Reference: ChEMBL document CHEMBL1138475, “Conformationally constrained fatty acid ethanolamides as cannabinoid and vanilloid receptor probes” (J Med Chem, 2009)
pEC50, pKi: −log10 of the molar value.

Chains of the proteins cited; added tags and fusions are not shown.
UniProt P34972, whole entry: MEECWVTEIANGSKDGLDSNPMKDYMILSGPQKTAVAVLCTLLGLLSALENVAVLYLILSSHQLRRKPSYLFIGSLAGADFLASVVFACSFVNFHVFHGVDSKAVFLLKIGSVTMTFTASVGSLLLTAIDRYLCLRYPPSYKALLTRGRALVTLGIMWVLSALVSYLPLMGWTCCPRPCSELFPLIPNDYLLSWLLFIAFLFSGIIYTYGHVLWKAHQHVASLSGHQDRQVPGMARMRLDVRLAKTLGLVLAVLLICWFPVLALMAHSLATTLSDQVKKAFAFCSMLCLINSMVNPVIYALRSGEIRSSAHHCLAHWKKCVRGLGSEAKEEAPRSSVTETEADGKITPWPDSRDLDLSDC
UniProt P47746, whole entry: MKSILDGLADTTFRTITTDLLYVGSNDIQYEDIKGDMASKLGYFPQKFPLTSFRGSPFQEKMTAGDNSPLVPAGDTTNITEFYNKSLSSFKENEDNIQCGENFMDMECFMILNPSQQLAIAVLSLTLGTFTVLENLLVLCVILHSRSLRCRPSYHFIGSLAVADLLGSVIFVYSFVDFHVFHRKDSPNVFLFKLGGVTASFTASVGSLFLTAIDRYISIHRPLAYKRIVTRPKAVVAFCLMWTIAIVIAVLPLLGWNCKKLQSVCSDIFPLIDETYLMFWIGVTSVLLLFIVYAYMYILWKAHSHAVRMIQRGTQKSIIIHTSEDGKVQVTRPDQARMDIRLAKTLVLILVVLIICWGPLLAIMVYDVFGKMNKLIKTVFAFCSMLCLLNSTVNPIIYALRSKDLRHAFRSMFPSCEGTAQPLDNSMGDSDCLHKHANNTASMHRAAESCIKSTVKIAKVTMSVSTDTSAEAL

What was measured:
[1] = target: Cannabinoid receptor 2 (Homo sapiens, UniProt P34972); test: Displacement of [3H]CP-55940 from human recombinant CB2 receptor expressed in HEK293 cell membrane; format: cell membranes
In short: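 Membranes from HEK-293 cells expressing human CB2 (Bmax 4.7 pmol/mg) incubated 90 min at 30 °C with 0.14 nM [3H]CP-55,940 and increasing test compound. Nonspecific binding with 10 µM WIN 55212-2. Ki from IC50 by Cheng-Prusoff; mean ± SEM, n ≥ 3.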

[2] = target: Cannabinoid receptor 1 (Mus musculus, UniProt P47746); test: Agonist activity at CB1 receptor expressed in mouse brain membrane by [35S]GTPgammaS binding assay; format: functional, cell membranes
In short: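 Mouse brain membranes (10 µg/mL) preincubated 30 min at 30 °C with adenosine deaminase 0.5 U/mL, in Tris buffer with MgCl2, EDTA, NaCl, DTT, 0.1% BSA, 0.1 nM [35S]GTPγS, 30 µM GDP; compounds 60 min at 30 °C. Nonspecific with 30 µM GTPγS. Filtration, scintillation counting. 0.1% DMSO vehicle. Basal subtracted; EC50 and Emax by sigmoid nonlinear regression.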

How did the pKi [1] turn out when `CCCCC/C=C\C/C=C\C/C=C\C/C=C\CCCC(=O)NCCO` [ANANDAMIDE] was run?
The pKi was 6.77.

And the pEC50 [2]?
Its pEC50 is 6.44.
